Measured affinities in a library of Ab-14 heavy chain variants

Reference: Engelhart et al. 2022, doi:10.1038/s41597-022-01779-4. File: FLAb, binding data.

Antigen: PDVDLGDISGINAS, a 14-residue peptide of the SARS-CoV-2 spike HR2 region.

Each scFv is VH, a (GGGGS)3 linker, VL, as in the parent Ab-14, and differs from it in the CDRs of the heavy chain only.
VH: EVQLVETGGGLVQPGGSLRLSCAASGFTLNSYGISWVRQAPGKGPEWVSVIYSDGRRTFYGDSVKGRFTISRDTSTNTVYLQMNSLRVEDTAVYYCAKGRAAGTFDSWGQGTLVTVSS
VL: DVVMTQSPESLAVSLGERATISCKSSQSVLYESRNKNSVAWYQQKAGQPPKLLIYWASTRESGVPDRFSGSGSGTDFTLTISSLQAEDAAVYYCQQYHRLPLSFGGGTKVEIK

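The parent was found by panning a naive human phage display library on the peptide. The library (AAYL49) carries one to three amino acid substitutions per variant, with no insertions or deletions. The assay is AlphaSeq: two haploid yeast populations carry antibody and antigen on their surface. After mating in shaken culture at 30 °C for 16 h, diploids were selected and their barcode pairs sequenced. Scores were corrected for input abundance and mapped to Kd with protein pairs of known affinity run in the same pool. Each pool was mated in three replicate cultures.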

Substitutions are numbered in sequence along the VH above, starting at 1 (not Kabat). The read-out is the apparent dissociation constant on a log10 scale (nM): the lower, the stronger. A mean of the replicates is given; it leaves out those without a signal. Where no diploid with the target was found in that replicate, the entry reads "nd": below detection, most likely a poor binder, though not proof of it.

For G26K/K65F, the assay gave 2.58, 1.97, 1.99 (mean 2.18).
For V50S/V64F/D106E, the assay gave nd, nd, nd.
For I34Q/S53N/G99V, the assay gave nd, nd, nd.
For I51T/D62E/R100Y, the assay gave nd, nd, nd.
For T28S/D54P/F105S, the assay gave nd, nd, nd.
For G26P/S35V/V64W, the assay gave nd, nd, nd.
For T28S/L29I/R100E, the assay gave -0.08, 0.27, 0.08 (mean 0.09).
For I51C/S53Y/G55F, the assay gave nd, nd, nd.
For G26V/Y32F/V64R, the assay gave 5.20, nd, nd.
For G55H/D62F/V64S, the assay gave 3.78, nd, nd.
For N30S/S31N/T104A, the assay gave nd, nd, nd.
For S53W/A102D/F105H, the assay gave nd, nd, nd.
For Y32Q/I34P/R56G, the assay gave 4.56, 4.54, 4.97 (mean 4.69).
For L29S/R56C/T104I, the assay gave nd, nd, 5.56.
For V50R/I51A/F59C, the assay gave nd, nd, nd.
For D54Y/R56Y/F59T, the assay gave nd, nd, nd.
For Y52P/V64Y/F105R, the assay gave nd, nd, nd.
For I34T/F59M, the assay gave nd, nd, nd.
For Y52T/V64A/R100F, the assay gave nd, nd, nd.
For Y60F/A101K/T104P, the assay gave 3.84, nd, nd.
For S53K/T58A/S63Y, the assay gave nd, 4.23, 4.25 (mean 4.24).
For T28K/S31H/A101M, the assay gave 1.11, 1.42, 1.21 (mean 1.25).
For Y32L/R57K/D106P, the assay gave nd, nd, nd.
For S35I/G61H/V64Q, the assay gave 4.95, 4.77, nd (mean 4.86).
For T58I/V64A/A102T, the assay gave 2.40, 2.19, 2.23 (mean 2.27).
For S53W/G99E, the assay gave nd, nd, nd.
For Y32L/I34D/S35H, the assay gave nd, nd, nd.
For L29Y/Y60N/F105S, the assay gave 3.68, nd, nd.
For I34W/T58V/G61I, the assay gave 2.49, 3.03, 4.50 (mean 3.34).
For I34F/S53D, the assay gave nd, nd, nd.
For L29Y/V50L/S53E, the assay gave nd, nd, nd.
For G61H/K65I/S107K, the assay gave 1.89, 1.97, 2.28 (mean 2.04).
For R56W/K65R/A101H, the assay gave nd, nd, nd.
For Y32G/K65Y/S107W, the assay gave nd, nd, nd.
For N30M/S31D/D106L, the assay gave 0.94, 1.13, 1.26 (mean 1.11).
For T28D/G103R/D106P, the assay gave nd, nd, nd.
For F59R/K65L/A101V, the assay gave 3.06, 2.99, 2.82 (mean 2.96).
For S53T/D54S/G61Q, the assay gave nd, nd, nd.

From the list, the first 3 with no signal in any replicate:

{"changes": "V50S/V64F/D106E", "log10 Kd, replicates": "nd, nd, nd", "mean log10 Kd (nM)": "nd"}
{"changes": "I34Q/S53N/G99V", "log10 Kd, replicates": "nd, nd, nd", "mean log10 Kd (nM)": "nd"}
{"changes": "I51T/D62E/R100Y", "log10 Kd, replicates": "nd, nd, nd", "mean log10 Kd (nM)": "nd"}

Parent in this assay: reference entry 0.65, copy in this library 4.11 (one replicate of three). Nonspecific signal, from three strains lacking the peptide, appeared in 15% of pairings of library AAYL49, centred on 4.06 (5% of these signals below 2.83); values are not corrected for it.